{"source": "patent US20050096323A1", "about": "“Diketopiperazine derivatives to inhibit thrombin” (NovoScience Pharma Inc., priority 1999, published 2005)", "origin": "cited, not measured here", "biological_target": "thrombin (Homo sapiens, UniProt P00734)", "conditions": "literature value; cited from earlier work"}
{"smiles": "CC1CNc2c(cccc2S(=O)(=O)N[C@@H](CCCNC(=N)N)C(=O)N2CC[C@@H](C)C[C@@H]2C(=O)O)C1", "note": "(stereo partly shown) [Argatroban, reference compound]", "values": [{"measurement": "Ki", "result": 0.19, "unit": "nM"}]}
